{
  "source": "patent US20150342921A1",
  "about": "“METFORMIN-ORLISTAT COMPOSITIONS” (LANDSTEINER SCIENTIFIC S.A. DE C.V., priority 2012, published 2015)",
  "origin": "cited, not measured here",
  "conditions": "in vivo; cited from earlier work",
  "data": [
    {"smiles": "CN(C)C(=N)N=C(N)N", "note": "[Metformin]", "values": [
      {"measurement": "Blood protein link", "value": "insignificant"},
      {"measurement": "Metabolism by the liver", "value": "not metabolized by the liver"}
    ]}
  ]
}
